According to patent US6352723B1, “Brain-derived alkali-soluble immunoregulatory composition” (priority 1999, dated 2002):

Tested on: lymphocytes
Experiment: Proliferation assay for stimulated lymphocytes (tritiated thymidine incorporation; % suppression, SI)
Type: cell-based, mice
Details: 10 ng/ml IL-2, n=6

IL-2: IL-2 added to the culture media at 10 ng/ml [reference compound]
SI with IL-2: 8.0±2.8
